PMC12196278, “Targeting Neuronal Nitric Oxide Synthase (nNOS) as a Novel Approach to Enhancing the Anti-Melanoma Activity of Immune Checkpoint Inhibitors” (Pharmaceutics, 2025)

How the values were obtained:
CS91 cells = assay: Ex vivo sensitivity of murine melanoma cells after prolonged treatment (MTT); details: read-out: IC50 of CS91 cells isolated from control-treated mice
[1] = test system: CS91 murine melanoma allograft; assay: In vivo anti-melanoma efficacy, immunocompetent allograft model, tumor volume; details: day 18, DBA/2 mice, nNOS inhibitor 10 mg/kg/day intraperitoneal, anti-PD-1 100 µg twice per week for 2 weeks
[2] = test system: CS91 murine melanoma allograft; assay: Survival analysis in the murine melanoma model (endpoint tumor volume 2000 mm^3); details: DBA/2 mice, CS91, result in words
[3] = Body weight, cecum weight and toxicity signs in treated mice; details: prolonged treatment, 21 days

CNCc1cccc(CCc2ccc3c(C)cc(N)nc3c2)c1
IC50 (CS91 cells): 4.2 µM
tumor growth / average tumor volume [1]: 26.3 % of the control
median survival / mouse survival compared with the control group [2]: not found to have significantly different median survival values
body weight compared with the control [3]: did not exhibit significant changes
